Assay: Population pharmacokinetic analysis
Type: in vivo, human
Settings: covariate test; ΔOFV > − 0.4, p > 0.1

CC(C)c1c(C(=O)Nc2ccccc2)c(-c2ccccc2)c(-c2ccc(F)cc2)n1CC[C@@H](O)C[C@@H](O)CC(=O)O [atorvastatin]
influence of aging on FRator-oOH or CLator: did not significantly influence

From PMC7403138 (Clinical Pharmacokinetics, 2020)
